From ChEMBL document CHEMBL4376865, “Discovery and Characterization of 1H-1,2,3-Triazole Derivatives as Novel Prostanoid EP4 Receptor Antagonists for Cancer Immunotherapy” (J Med Chem, 2020) come the findings set out here.

Sequences of proteins named here, by UniProt entry; tags and fusion partners are left off. A change or cut given only in a name is not applied to a line headed by its entry.
UniProt P35408: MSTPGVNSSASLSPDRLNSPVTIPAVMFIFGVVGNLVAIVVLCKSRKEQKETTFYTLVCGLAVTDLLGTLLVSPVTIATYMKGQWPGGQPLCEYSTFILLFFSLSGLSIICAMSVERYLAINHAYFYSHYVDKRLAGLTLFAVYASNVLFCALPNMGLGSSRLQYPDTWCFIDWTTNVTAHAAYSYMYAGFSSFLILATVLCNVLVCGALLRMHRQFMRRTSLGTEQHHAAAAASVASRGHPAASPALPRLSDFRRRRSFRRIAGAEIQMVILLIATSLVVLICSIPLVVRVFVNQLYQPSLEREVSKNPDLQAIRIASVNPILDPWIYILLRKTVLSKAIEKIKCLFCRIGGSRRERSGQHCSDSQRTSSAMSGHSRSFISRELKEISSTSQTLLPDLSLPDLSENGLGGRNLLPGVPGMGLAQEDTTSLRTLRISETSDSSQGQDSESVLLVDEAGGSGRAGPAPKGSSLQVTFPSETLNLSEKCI

Structures are written as SMILES. The source made the active and inactive calls. The rule behind the calls is not given here.

In test [1] the target is T1, Prostaglandin E2 receptor EP4 subtype (Homo sapiens, UniProt P35408). In words: Inhibition of human EP4 transfected in human HEK293 cells assessed as reduction in PGE2-induced cAMP level incubated for 15 mins followed by PGE2 stimulation and measured every 2 mins for 30 mins by GloSensor cAMP Assay. In kind it is functional, cell-based.
The target in test [2] is T1, Prostaglandin E2 receptor EP4 subtype. Put plainly: Inhibition of human EP4 transfected in human HEK293 cells co transfected with CRE-luciferase assessed as reduction in PGE2-induced luciferase expression incubated for 24 hrs by luciferase reporter gene Assay. The test is classed as functional, cell-based. In general terms: Reporter assays use an easily measured gene product as a stand-in for the process of interest.

Test [3] shares this target. Put plainly: Inhibition of human EP4 transfected in human HEK293 cells co transfected with SmBit-beta-arrestin. assessed as reduction in PGE2 induced-beta-arrestin recruitment by NanoBiT beta-arrestin recruitment assay. The test is classed as cell-based.
Test [4] shares this target. Put plainly: Inhibition of human EP4 transfected in CHO cells assessed as reduction in PGE2-induced ERK phosphorylation incubated for 20 mins followed by PGE2 stimulation and measured after 10 mins by Western blot analysis. The test is classed as cell-based. Background: In western blotting, separated proteins are transferred to a membrane and probed.
The subject of test [5] is RAW264.7. Put plainly: Inhibition of GM-CSF/IL-4 and PGE2-induced IL-1beta mRNA expression in mouse RAW264.7 cells incubated for 24 hrs by qPCR analysis. The test is classed as functional, cell-based. (In general: Real-time PCR tracks product formation cycle by cycle.)
Test [6] has as its system RAW264.7. Put plainly: Inhibition of GM-CSF/IL-4 and PGE2-induced IL-4Ralpha mRNA expression in mouse RAW264.7 cells incubated for 24 hrs by qPCR analysis. In kind it is functional, cell-based.
Test [7] concerns RAW264.7. Put plainly: Inhibition of GM-CSF/IL-4 and PGE2-induced IL-6 mRNA expression in mouse RAW264.7 cells incubated for 24 hrs by qPCR analysis. The test is classed as functional, cell-based.
Test [8] deals with RAW264.7. Put plainly: Inhibition of GM-CSF/IL-4 and PGE2-induced ARG1 mRNA expression in mouse RAW264.7 cells incubated for 24 hrs by qPCR analysis. The test is classed as functional, cell-based.
In test [9] the test system is RAW264.7. Put plainly: Inhibition of GM-CSF/IL-4 and PGE2-induced iNOS mRNA expression in mouse RAW264.7 cells incubated for 24 hrs by qPCR analysis. The test is classed as functional, cell-based.
Test [10] concerns RAW264.7. Put plainly: Inhibition of GM-CSF/IL-4 and PGE2-induced COX2 mRNA expression in mouse RAW264.7 cells incubated for 24 hrs by qPCR analysis. The test is classed as functional, cell-based.
Test [11] concerns RAW264.7. In words: Inhibition of GM-CSF/IL-4 and PGE2-induced IL-10 mRNA expression in mouse RAW264.7 cells incubated for 24 hrs by qPCR analysis. In kind it is functional, cell-based.
Test [12] deals with RAW264.7. Put plainly: Inhibition of GM-CSF/IL-4 and PGE2-induced CXCL1 mRNA expression in mouse RAW264.7 cells incubated for 24 hrs by qPCR analysis. The test is classed as functional, cell-based.
The subject of test [13] is Mus musculus. Put plainly: In vivo induction of infiltration of CD45+ CD8+ T-cells in mouse CT26 cells xenografted in BALB/c mouse at 150 mg/kg, po administerd daily for 14 days by flow cytometry analysis. The test is classed as functional, organism-based.
Test [14] relates to Mus musculus. Put plainly: In vivo induction of infiltration of CD8+ T-cells in mouse CT26 cells xenografted in BALB/c mouse at 150 mg/kg, po administerd daily for 14 days by immunofluorescence based inverted microscopic analysis. The test is classed as functional, organism-based.
The species entered for test [15] is Homo sapiens. Put plainly: Selectivity index, ratio IC50 for antagonist activity at human EP1 receptor expressed in CHO cells coexpressing G16-alpha assessed as intracellular calcium flux to IC50 for antagonist activity at human EP4 receptor expressed in CHO cells coexpressing G16-alpha assessed as intracellular calcium flu. In kind it is cell-based.
For test [16], the species on record is Homo sapiens. In words: Selectivity index, ratio IC50 for antagonist activity at human EP2 receptor expressed in CHO cells coexpressing G16-alpha assessed as intracellular calcium flux to IC50 for antagonist activity at human EP4 receptor expressed in CHO cells coexpressing G16-alpha assessed as intracellular calcium flu. In kind it is cell-based.
The species entered for test [17] is Homo sapiens. Put plainly: Selectivity index, ratio IC50 for antagonist activity at human EP3 receptor expressed in CHO cells coexpressing G16-alpha assessed as intracellular calcium flux to IC50 for antagonist activity at human EP4 receptor expressed in CHO cells coexpressing G16-alpha assessed as intracellular calcium flu. The test is classed as cell-based.

Turning to `C/C=C/c1nnn(Cc2ccc(C(F)(F)F)cc2)c1C(=O)N[C@@H](C)c1ccc(C(=O)O)cc1`, the inhibition entry (in [1]; in [2]; in [3]; in [4]; in the test on RAW264.7 [5]; in the test with RAW264.7 [6]) was “Dose-dependent effect” in each case. Further, the inhibition entry in the test with RAW264.7 [7], in the test with RAW264.7 [8], with RAW264.7 [9], in the test with RAW264.7 [10], in the test on RAW264.7 [11] and with RAW264.7 [12] was “Dose-dependent effect” in each case. Also, the outcome in the test with Mus musculus [13] and in the test on Mus musculus [14] was Active. The Ratio IC50 in the test filed under Homo sapiens [15], in the test filed under Homo sapiens [16] and in the test listed under Homo sapiens [17] was more than 1000 in each case.
